Results as given in article PMC5826336 (Frontiers in Synaptic Neuroscience, 2018).

Protein sequences, listed by entry. Tags and fused reporters are not part of them. Lines headed by an entry give the natural chain unless they say otherwise; changes in a name come on top.
UniProt P14416, whole entry: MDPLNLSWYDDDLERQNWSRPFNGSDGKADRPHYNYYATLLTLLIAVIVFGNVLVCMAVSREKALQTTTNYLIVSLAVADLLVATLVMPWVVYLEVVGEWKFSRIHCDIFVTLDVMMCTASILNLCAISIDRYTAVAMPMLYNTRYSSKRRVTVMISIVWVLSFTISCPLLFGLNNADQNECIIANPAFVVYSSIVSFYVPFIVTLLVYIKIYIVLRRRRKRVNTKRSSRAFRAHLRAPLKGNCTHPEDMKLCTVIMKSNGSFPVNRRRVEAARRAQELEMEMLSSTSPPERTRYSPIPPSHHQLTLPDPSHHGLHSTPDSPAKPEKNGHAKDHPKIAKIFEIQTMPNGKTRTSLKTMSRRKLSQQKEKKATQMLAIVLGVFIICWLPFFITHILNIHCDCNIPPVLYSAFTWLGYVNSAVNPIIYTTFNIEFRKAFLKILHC

What was measured:
[1] = molecular target: D2R long isoform (PathHunter) (Homo sapiens, UniProt P14416); assay: PathHunter beta-arrestin recruitment, agonist mode; conditions: read-out: β-arrestin recruitment assay / EC50 (μM ± S.E.M.); CHO-K1, 90 min, 37°C
human D2R long isoform = human D2R long isoform (Homo sapiens, UniProt P14416); assay: HitHunter cAMP assay, inhibition of forskolin-stimulated cAMP, agonist mode; conditions: read-out: cAMP inhibition assay / EC50 (μM ± S.E.M.); CHO-K1, forskolin, 60 min, 37°C

Cc1c(CN2CCN(c3ncccn3)CC2)ccc2cccnc12
EC50 [1]: 7.6 µM | EC50 (human D2R long isoform): 0.8 µM
